Data: patent publication US20220184072A1 (priority 2019, published 2022)

Test system: C57 mice
Assay: Formalin paw test (inflammatory pain model)
Type: in vivo
Conditions: SC 1.0 mg/kg; 0-10 min

O=C1CN2c3c(cccc3[C@@H]3CN(CCCOc4ccc(F)cc4)CC[C@@H]32)N1 [Example 1, (6bR,10aS)-8-(3-(4-fluorophenoxy)propyl)-6b,7,8,9,10,10a-hexahydro-1H-pyrido[3′,4′:4,5]pyrrolo[1,2,3-de]quinoxalin-2(3H)-one]
Mean Behavior Rating (0-4): 1.3
